Assay results as given in patent US12280118B2 (Kyowa Kirin Co., Ltd., priority 2017, dated 2025).

What was measured:
human Tresp = assay: Inhibitory activity of IL-2-stimulated Tregs on Tresp proliferation; type: cell-based; details: Tregs cultured 7 days with IL-2 (final concentration 65 nM); compared with unstimulated Treg
Protocol: All cells were separated from each other by the same lot of frozen human PBMC.
Seven days before the assay, Tregs were separated from the frozen human PBMCs as described in Example 13. […] The obtained cells were used as IL-2-stimulated Tregs.
The cell preparation on the day of test was performed as follows. Tregs were separated from the frozen human PBMC by the method described in Example 13 and used as unstimulated Tregs. After CD3^+CD25^− T cells were separated from the frozen human PBMC, by using EasySep Human T Cell Enrichment Kit (manufactured by […] Technologies) and EasySep Human Pan-CD25 Positive Selection and Depletion Kit (manufactured by […] Technologies), the cells were labeled by reacting Celltrace violet (manufactured by Thermo Fischer […]) diluted to 40 μmol/L with a 10% FBS-containing RPMI1640 medium, at room temperature for 5 minutes. […]
Thereafter, the cells were stained with anti-human CD4-APC (manufactured by BD Pharmingen) and anti-human CD8-PE (manufactured by BD Pharmingen) (at room temperature for 15 minutes), and then various fluorescent intensities were measured by flow cytometer FACS Canto II (manufactured by BD Biosciences).
The obtained data was exported as FCS file, and then analyzed using data analysis software FLowJo (TreeStar, version 7.6.5) for a division index value, which is an average number of cell divisions in CD4^+ Tresp or CD8^+ Tresp.

human PBMC = assay: Ex vivo assay: cytokine production of human PBMC; type: cell-based; details: human PBMC in autologous plasma with OKT3, 5 days, culture supernatant
Protocol: Production amounts of various cytokines of human PBMC stimulated with various IL-2 were measured by a method below.
After dispensing human peripheral blood into a 15 mL centrifuge tube, the human peripheral blood was centrifuged at 2000 rpm for 10 minutes, and a supernatant thereof was collected to obtain human plasma. The obtained plasma was sterilized by filtration using a 0.22 μm filter. The same amount of PBS as the collected plasma was added to the peripheral blood and diluted, and then human PBMC was obtained by a density gradient centrifugation method using Ficoll Paque plus (manufactured by GE Healthcare).
The obtained human PBMC was suspended in autologous plasma at 5×10^6 cells/mL, and an anti-CD3 antibody OKT3 was added thereto to obtain a final concentration of 0.5 μg/mL. […] After culturing at 37° C. under 5% CO2 for 5 days, the culture supernatant was collected, and a production amount of cytokine in the supernatant was quantified using Human Th1/2/17 CBA kit (manufactured by BD Biosciences).

IL-2 (P): commercially available IL-2 manufactured by peprotech
promoted: production amount of IFNγ (human PBMC) | production amount of IL-4 (human PBMC) | production amount of IL-6 (human PBMC) | production amount of IL-10 (human PBMC) | production amount of TNFα (human PBMC)
inhibited: proliferation of Tresp in the presence of IL-2-stimulated Tregs (human Tresp)
